# Data from patent publication US12109179B2, “Pharmaceutical compositions and combinations comprising inhibitors of the androgen receptor and uses thereof” (ESSA Pharma Inc., priority 2019, dated 2024).
# System: PSA, UBE2C, FKBP5, CYCLIN A2, TMPRSS2, and CDC20 transcripts
# Assay: Transcript levels of FL-AR and AR-V7 regulated genes in C4-2B-MDVR
# Assay type: cell-based, human
# Description: Compound 13a decreased transcript expression of the M-phase cell cycle genes UBE2C, CYCLIN A2, CDC20 and PSA, FKBP5, and CDC20 (FIGS. 7B, 7D, and 7F).
smiles,measurement,setting,value
"CNC(=O)c1ccc(N2C(=S)N(c3ccc(C#N)c(C(F)(F)F)c3)C(=O)C2(C)C)cc1F [Enzalutamide, enzalutamide]",expression of CDCl2O,,no effect
same,expression of UBE2C and cyclin A2,in the presence of androgen,increased
